Key:
Homo sapiens = organism: Homo sapiens; test: Selectivity ratio of IC50 for human recombinant eNOS to IC50 for human recombinant nNOS
[1] = molecular target: Nitric oxide sythases; iNOS & nNOS (Homo sapiens) (UniProt P29475+P35228); test: Selectivity ratio of IC50 for human recombinant iNOS to IC50 for human recombinant nNOS
Outline: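 Recombinant human nNOS and iNOS were expressed in baculovirus-infected Sf9 cells, and the assay measured [³H]-L-arginine to [³H]-L-citrulline conversion. nNOS buffer: 40 mM HEPES pH 7.4 with CaCl₂, MgCl₂, BSA, 1 mM NADPH and 1.2 μM CaM. iNOS buffer: 100 mM HEPES pH 7.4 with 120 μM NADPH and 100 nM CaM. Compound was preincubated 15 min at RT, then reacted 45 min at 37 °C. Citrulline was separated on DOWEX and counted by scintillation, in duplicate. The ratio is IC50 iNOS/IC50 nNOS.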

Sequences of proteins named here, by UniProt entry; tags and fusion partners are left off.
UniProt P29475, whole entry, looked up: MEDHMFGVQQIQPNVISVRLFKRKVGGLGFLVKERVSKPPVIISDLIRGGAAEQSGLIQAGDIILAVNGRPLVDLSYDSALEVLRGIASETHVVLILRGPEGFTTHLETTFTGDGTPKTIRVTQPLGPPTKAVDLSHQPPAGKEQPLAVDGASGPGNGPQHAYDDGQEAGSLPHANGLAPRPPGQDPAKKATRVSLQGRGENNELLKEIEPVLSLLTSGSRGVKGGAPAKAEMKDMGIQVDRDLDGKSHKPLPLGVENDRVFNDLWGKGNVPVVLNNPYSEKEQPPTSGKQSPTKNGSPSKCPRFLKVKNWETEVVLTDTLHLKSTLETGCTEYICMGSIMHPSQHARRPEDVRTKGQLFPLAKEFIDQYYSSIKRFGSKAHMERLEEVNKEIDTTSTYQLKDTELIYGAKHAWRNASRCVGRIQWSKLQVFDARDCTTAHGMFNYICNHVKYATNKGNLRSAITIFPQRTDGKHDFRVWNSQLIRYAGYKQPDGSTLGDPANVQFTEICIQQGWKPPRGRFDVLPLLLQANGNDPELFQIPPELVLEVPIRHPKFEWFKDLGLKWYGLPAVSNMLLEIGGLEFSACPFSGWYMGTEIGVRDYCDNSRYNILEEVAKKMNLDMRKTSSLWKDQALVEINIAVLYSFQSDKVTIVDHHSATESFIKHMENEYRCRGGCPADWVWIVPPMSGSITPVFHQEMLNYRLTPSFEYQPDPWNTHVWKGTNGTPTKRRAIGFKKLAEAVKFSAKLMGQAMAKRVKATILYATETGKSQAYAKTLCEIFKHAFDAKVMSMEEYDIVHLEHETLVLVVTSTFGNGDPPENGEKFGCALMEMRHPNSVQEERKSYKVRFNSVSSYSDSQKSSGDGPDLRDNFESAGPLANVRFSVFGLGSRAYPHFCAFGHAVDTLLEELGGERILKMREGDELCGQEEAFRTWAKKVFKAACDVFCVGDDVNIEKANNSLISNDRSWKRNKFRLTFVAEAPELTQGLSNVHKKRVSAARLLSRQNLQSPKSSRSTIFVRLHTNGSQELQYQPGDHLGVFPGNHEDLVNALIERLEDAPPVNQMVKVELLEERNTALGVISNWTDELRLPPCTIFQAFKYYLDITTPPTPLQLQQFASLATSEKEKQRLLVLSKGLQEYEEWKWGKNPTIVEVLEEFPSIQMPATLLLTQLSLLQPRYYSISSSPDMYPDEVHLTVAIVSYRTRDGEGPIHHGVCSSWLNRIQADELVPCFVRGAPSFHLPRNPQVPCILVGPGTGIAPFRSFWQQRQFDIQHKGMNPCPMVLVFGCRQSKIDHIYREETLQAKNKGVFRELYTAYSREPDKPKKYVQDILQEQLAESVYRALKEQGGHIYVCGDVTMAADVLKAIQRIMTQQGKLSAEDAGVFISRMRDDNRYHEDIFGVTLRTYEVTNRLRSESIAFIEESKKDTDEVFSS
UniProt P35228, whole entry, looked up: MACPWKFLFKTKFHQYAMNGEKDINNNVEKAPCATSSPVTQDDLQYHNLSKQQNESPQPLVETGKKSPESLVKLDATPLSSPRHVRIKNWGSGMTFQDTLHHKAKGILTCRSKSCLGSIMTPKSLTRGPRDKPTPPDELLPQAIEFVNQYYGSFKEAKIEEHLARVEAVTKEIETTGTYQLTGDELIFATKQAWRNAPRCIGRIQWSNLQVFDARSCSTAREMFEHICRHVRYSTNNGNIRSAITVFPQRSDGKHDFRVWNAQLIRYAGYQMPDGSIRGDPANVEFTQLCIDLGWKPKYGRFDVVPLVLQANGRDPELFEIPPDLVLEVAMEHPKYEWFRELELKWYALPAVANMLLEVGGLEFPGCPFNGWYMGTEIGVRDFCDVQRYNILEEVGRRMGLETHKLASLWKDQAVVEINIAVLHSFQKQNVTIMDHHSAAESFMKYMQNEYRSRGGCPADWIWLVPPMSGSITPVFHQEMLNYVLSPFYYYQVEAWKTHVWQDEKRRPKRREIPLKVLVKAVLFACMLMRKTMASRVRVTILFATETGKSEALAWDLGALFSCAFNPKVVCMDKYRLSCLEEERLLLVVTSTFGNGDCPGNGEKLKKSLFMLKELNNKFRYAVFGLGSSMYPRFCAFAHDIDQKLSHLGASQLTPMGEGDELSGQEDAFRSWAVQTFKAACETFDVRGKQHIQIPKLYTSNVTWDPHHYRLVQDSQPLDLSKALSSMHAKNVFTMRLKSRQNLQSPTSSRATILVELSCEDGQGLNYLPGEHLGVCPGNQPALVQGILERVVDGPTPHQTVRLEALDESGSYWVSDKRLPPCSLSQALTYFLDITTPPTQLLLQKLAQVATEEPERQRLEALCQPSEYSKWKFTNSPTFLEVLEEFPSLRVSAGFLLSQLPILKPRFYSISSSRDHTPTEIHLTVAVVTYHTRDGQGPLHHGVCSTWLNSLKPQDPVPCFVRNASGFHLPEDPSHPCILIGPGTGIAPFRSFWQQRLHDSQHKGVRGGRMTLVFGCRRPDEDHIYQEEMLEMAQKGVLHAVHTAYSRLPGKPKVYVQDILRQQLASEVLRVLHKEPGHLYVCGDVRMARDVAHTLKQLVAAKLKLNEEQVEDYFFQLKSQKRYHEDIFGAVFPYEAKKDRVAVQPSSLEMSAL

CNC(=N)NCCC[C@H](N)C(=O)O.Cl.Cl
Ratio IC50 (Homo sapiens): 0.7
Ratio IC50 [1]: 2
